Drawing on PMC10388327, “Dual Piperidine-Based Histamine H3 and Sigma-1 Receptor Ligands in the Treatment of Nociceptive and Neuropathic Pain” (Journal of Medicinal Chemistry, 2023), this text covers σ2/σ1 ratio for two compounds.

The structures appear in SMILES notation. Structures can show the parent of a compound that is named as a salt.

The subject of this test is sigma-1 receptor (σ1R). The experiment in a line: σ1R radioligand binding ([3H](+)-pentazocine). Also on record: species or system guinea pig. The following applies: ratio of σ2R Ki to σ1R Ki.

Take `c1ccc(-c2ccc(OCCCCCCN3CCCCC3)cc2)cc1` [Compound 11, 1-(6-([1,1′-Biphenyl]-4-yloxy)hexyl)piperidine Oxalate]: the σ2/σ1 ratio was found to be 0.4. The result for `c1ccc(-c2ccc(OCCCCCN3CCCCC3)cc2)cc1` [Compound 10, 1-(5-([1,1′-Biphenyl]-4-yloxy)pentyl)piperidine Oxalate] reads 0.1.
